Experimental data: ChEMBL document CHEMBL5625159, “Challenges for the development of mutant isocitrate dehydrogenases 1 inhibitors to treat glioma” (Eur J Med Chem, 2023)

Experiment: Brain to plasma ratio in mouse at 50 mg/kg, iv
Format: ADME, organism-based
Conditions: brain and plasma, read-out: BPR

Work on `C[C@H](Nc1ccc(C#N)n(C)c1=O)c1cc2cc(Cl)ccc2[nH]c1=O` [OLUTASIDENIB] yielded a Kp of 0.24.
